Experimental findings from patent US20240239801A1, “PYRIMIDO[5,4,D]PYRIMIDINE COMPOUNDS, COMPOSITIONS COMPRISING THEM AND USES THEREOF” (Université de Montréal, priority 2021, published 2024) are described below.

pEC50: −log10 of the molar value.

Holding throughout (experiment): Proliferation inhibition, CellTiter-Glo
(ATP-based viability assays read luminescence as a measure of living cells.)

Test [1] has as its system A101D. The following applies: read-out: A101D Prolif. EC50; Table D-1; 3 days. The protocol:
(§1) All cancer cell lines (A375, A101D, A2058, RKO, HT29 SK-MEL 30, IPC298, HepG2, HCT-116, Lovo, SW620, SW480, NCI-H358, NCI-H2122, Calu-6, NCIH2087, NCIH1755, NCIH1666 and Mewo) were obtained from ATCC and cultured in RPMI-1640 medium (Gibco) supplemented with 5% heat inactivated fetal bovine serum (FBS, Wisent) at 37° C. under 5% CO2. Cells were maintained in T175 flasks (Greiner). They were passaged by removing the culture medium, washing once in 10 mL of room temperature Phosphate Buffered Saline (PBS; Wisent) and incubating at 37° C. with 2 mL of 0.05% Trypsin (Thermo-Fisher). Trypsin was then inactivated by adding complete growth medium and the cells were then replated in a T175 culture dish at the appropriate dilution. All cell lines were routinely tested for mycoplasma contamination. Tissue type and mutational status of each cell line can be found in Table B.
(§2) CellTiter-Glo® viability analysis was conducted on cells plated in […] of complete RPMI-1640 growth medium in 96-well flat-bottomed white opaque plates (Greiner or Corning) at a density indicated in Table E (for each CCL, number of cells plated per well of a 96-well plate to perform the CellTiter-Glo® cell viability assay). The cell density in cells/cm^2 would correspond to cell number divided by the area of one well of a 96-well plate (0.32 cm^2). Cells were maintained overnight at 37° C. under 5% CO2 before treatment with compounds' dilution series for 3 days.
(§3) In a dilution series 100 μL/well of test substance dilution prepared in complete RPMI-1640 growth media was added to the cells plated initially in 100 μL of growth media. The dilution series is selected so that ten concentrations cover a range from 30 μM or 10 μM to […]. If necessary (as in the case of A375 cells, which were more sensitive to the compounds) the initial concentration of 10 μM is lowered to 1 μM and further dilution is carried out accordingly. The final concentration of DMSO in the assay is set to 0.5%.
(§4) After 3 days of incubation, the growth media were removed by aspiration and 60 μL of diluted CellTiter-Glo® reagent (10 μL CellTiter-Glo® reagent+50 μL of PBS) was added to each well. Cells were allowed to lyse and to equilibrate in CellTiter-Glo® reagent by 5 min incubation on a plate shaker followed by 10 min incubation at room temperature. Luminescence signals were then acquired on a Synergy Neo2 plate reader (Biotek).
(§5) The effect of each compound dilution on the proliferation of cancer cell lines was expressed in % inhibition and calculated as follows. An internal 100% inhibition control (1 μM of trametinib; cat. No. HY-10999; MedChem Express; CAS No. 871700-17-3) was included in each plate and used as a measure of CellTiter-Glo® signal background. The value obtained for trametinib was subtracted from each data point. The average of DMSO (vehicle) controls (set as 0% inhibition) was established and used to calculate % inhibition:
(§6) The ability of each compound to inhibit proliferation was expressed as a EC50 value obtained by plotting the effect values for each data point of a dilution series and fitting the obtained curves using a log(agonist) versus response−variable slope (four parameters) function using GraphPadPrism (V7.0) or Dotmatics Screening Ultra platform.

For test [2], the system named is A2058. Conditions: read-out: A2058 Prolif. EC50; Table D-1; 3 days. How it is done:
as §1, §2, §3, §4, §5, §6

The subject of test [3] is A375. The following applies: read-out: A375 Prolif. EC50; Table D-1; 3 days. How it is done:
as §1, §2, §3, §4, §5, §6

In test [4] the test system is Calu6. The following applies: read-out: Calu6 Prolif. EC50; Table D-2; 3 days. The protocol:
as §1, §2, §3, §4, §5, §6

Test [5] deals with HCT116. Conditions: read-out: HCT116 Prolif. EC50; Table D-1; 3 days. How it is done: as §1, §2, §3, §4, §5, §6
For test [6], the system named is HT-29. Conditions: read-out: HT-29 Prolif. EC50; Table D-1; 3 days. How it is done:
as §1, §2, §3, §4, §5, §6

Test [7] deals with HepG2. The following applies: read-out: HepG2 Prolif. EC50; Table D-1; 3 days. The protocol: as §1, §2, §3, §4, §5, §6
Test [8] deals with NCI-H2122. The following applies: read-out: NCI-H2122 Prolif. EC50; Table D-2; 3 days. The protocol:
as §1, §2, §3, §4, §5, §6

Test [9] has as its system RKO. Conditions: read-out: RKO Prolif. EC50; Table D-1; 3 days. How it is done: as §1, §2, §3, §4, §5, §6
Test [10] concerns SK-MEL30. Conditions: read-out: SK-MEL30 Prolif. EC50; Table D-1; 3 days. The protocol: as §1, §2, §3, §4, §5, §6
Test [11] concerns SW480. Conditions: read-out: SW480 Prolif. EC50; Table D-2; 3 days. How it is done: as §1, §2, §3, §4, §5, §6

As to `COc1ccc(S(=O)(=O)Nc2ccc(F)c(Nc3ncnc4cnc(-n5cc(S(=O)(=O)N(C)CCN(C)C)c6ccccc65)nc34)c2F)c(C)c1Cl`, the pEC50 (usually the EC50 on a negative log10 scale, so that one unit is a factor of ten) was more than 6.52 in [1]; more than 6.52 in [2]; more than 6.52 in test [3]; 5.52 to 6.52 in [4]; 5.52 to 6.52 in test [5]; more than 6.52 in test [6]. Further, the pEC50 is more than 6.52 in test [7]; less than 5.52 in test [8]; more than 6.52 in test [9]; more than 6.52 in test [10]; less than 5.52 in test [11].
As for `O=S(=O)(Nc1ccc(F)c(Nc2ncnc3cnc(-n4cnc5c(N6CCC(O)(C(F)(F)F)CC6)cccc54)nc23)c1F)c1cccc(Cl)c1Cl`, the pEC50 in [1], in test [2], in [3], in test [4], in test [5] and in [6] was more than 6.52 in each case. Besides, the negative-log EC50 (pEC50) is more than 6.52 in [7]; 5.52 to 6.52 in test [8]; more than 6.52 in test [9]; more than 6.52 in test [10]; 5.52 to 6.52 in [11].
